This note sets out measurements from publication PMC3296737.

For this test, the target named is 30 S ribosomal subunits depleted of protein S1 (30 S(-S1)). As to the kind of experiment: in vitro reconstitution of 30 S subunits with ultrafiltration; competition: 30 S(-S1) subunits incubated concomitantly with S1 and S1_(Δ103–181) in equimolar amounts, 37°C, 30 min; 100 kDa MWCO ultrafiltration; SDS-PAGE, Coomassie.

As to “HIS- and FLAG-tagged protein S1_(Δ103–181), purified (plasmid pProEX-S1ΔD2F) (from UniProt P0AG67 1-557) (natural protein)”, the ratio of bound S1 (Δ103–181) to bound S1 in competition was 1.
